Target: human Fhit (Homo sapiens, UniProt P49789)
Assay: TLC and radioactivity of labelled NH2-pA; Eadie–Hofstee plot
Conditions: ammonolysis; 185 mM NH3, 200 mM CAPS/NaOH pH 10.6; F-pA 0.62–5 mM; labelled compound (8-3H)

Protein sequences, listed by entry. Tags and fused reporters are not part of them. Lines headed by an entry give the natural chain unless they say otherwise; changes in a name come on top.
UniProt P49789: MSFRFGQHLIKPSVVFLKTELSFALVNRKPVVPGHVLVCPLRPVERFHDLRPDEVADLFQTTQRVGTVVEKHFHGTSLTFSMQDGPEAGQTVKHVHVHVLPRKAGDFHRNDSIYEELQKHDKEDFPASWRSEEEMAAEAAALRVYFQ

## F-pA
  Km: 1600 µM

— publication PMC4613722, “Adenylylsulfate–ammonia adenylyltransferase activity is another inherent property of Fhit proteins” (2015)
